Results as given in BindingDB's records for doi:10.1021/acs.jmedchem.5b00801 (Duquesne University, 2015).

Experiments:
[1] = Binding affinity to human FRbeta expressed in Chinese hamster D4 cells assessed as cell growth inhibition after 96 hrs by CellTiter-Blue assay in presence of 200 nM folic acid
[2] = Binding affinity to human FRalpha expressed in Chinese hamster RT16 cells assessed as cell growth inhibition after 96 hrs by CellTiter-Blue assay in presence of 200 nM folic acid
[3] = Binding affinity to human PCFT expressed in Chinese hamster R2/PCFT4 cells assessed as cell growth inhibition after 96 hrs by CellTiter-Blue assay

SMILES | IC50 [1] | IC50 [2] | IC50 [3]
Nc1nc2[nH]c(CCCc3csc(C(=O)N[C@@H](CCC(=O)O)C(=O)O)c3)cc2c(=O)[nH]1 | 557 nM | 494 nM | 
Nc1nc(N)c2c(CCCc3csc(C(=O)N[C@@H](CCC(=O)O)C(=O)O)c3)coc2n1 |  | > 1000 nM | > 1000 nM
Nc1nc(N)c2c(CCCc3cc(C(=O)N[C@@H](CCC(=O)O)C(=O)O)cs3)coc2n1 |  | > 1000 nM | 
